Data published in patent US20080287478A1 (priority 2003, published 2008).

System: male NMRI mice
Assay: Gridshock test (pain threshold, CNS effect)
Details: i.v.; for time to death after injection: at the lethal dose stated for the compound

CC(C)[C@H]1CC[C@@H](N2CCC3(CC2)C(=O)N(CCCCCCCCCN(C)C)CN3c2ccccc2)CC1 (relative stereo)
time to death after injection: immediately | dose at which statistical significant analgesia was observed at 15 and 30 minutes (gridshock, at 15 and 30 minutes): 10000 nmol/kg

CC(C)[C@H]1CC[C@@H](N2CCC3(CC2)C(=O)N(CCCCCCCCCN2CCCNCCNCCCNCC2)CN3c2ccccc2)CC1 (relative stereo)
time to death after injection: approximately 2 minutes | dose at which statistical significant analgesia was observed (gridshock): 5000 mmol/kg

CC(C)[C@H]1CC[C@@H](N2CCC3(CC2)C(=O)N(CCCCCCCCCNCCNCCNCCNCCN)CN3c2ccccc2)CC1 (relative stereo)
time to death after injection: approximately 2 minutes
